Target: human CRTH2 (Homo sapiens, UniProt Q9Y5Y4)
Test: Human CRTH2 binding assay (3H-PGD2 binding, 293(124) cells)
Settings: 3H-PGD2 binding to 293(124) cells stably expressing human CRTH2

Protein sequences, listed by entry. Tags and fused reporters are not part of them.
UniProt Q9Y5Y4, whole entry: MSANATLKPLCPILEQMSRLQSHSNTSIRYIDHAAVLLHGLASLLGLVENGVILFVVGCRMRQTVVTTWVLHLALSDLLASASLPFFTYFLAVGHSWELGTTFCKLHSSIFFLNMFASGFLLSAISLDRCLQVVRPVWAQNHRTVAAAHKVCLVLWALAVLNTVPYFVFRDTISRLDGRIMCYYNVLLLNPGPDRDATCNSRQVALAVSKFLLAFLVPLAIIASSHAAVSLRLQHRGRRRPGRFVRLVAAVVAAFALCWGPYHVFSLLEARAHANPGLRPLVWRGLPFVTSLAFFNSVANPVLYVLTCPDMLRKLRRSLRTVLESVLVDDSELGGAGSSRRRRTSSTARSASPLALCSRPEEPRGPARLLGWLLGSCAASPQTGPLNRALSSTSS

Row | IC50 [nM] | Compound
1 | < 40 | CC1CC(N(C(=O)CCCC(=O)O)c2ccccc2)c2ccccc2N1C(=O)c1ccccc1 (stereo not drawn)
2 | < 40 | CCN(CC)c1ccc(C(=O)N2c3ccccc3C(N(C(C)=O)c3ccccc3)CC2C)cc1 (stereo not drawn)
3 | > 40 | CC(=O)N(c1ccccc1)C1CC(C)N(C(=O)c2ccc([N+](=O)[O-])cc2)c2ccccc21 (stereo not drawn)

From patent US20050038070A1, “Asthma and allergic inflammation modulators” (AMGEN INC., priority 2003, published 2005)
